Earlier results in patent US5565616A (priority 1994, dated 1996).

Key:
[1] = water, cited from earlier work
[2] = cited from earlier work

Mg(OH)2
Solubility ([1]; 100 °C): 40 mg/L | Solubility ([2]; 24.0 MPa, 440 °C): 0.02 mg/L

NaNO3
Solubility ([1]; 25 °C): 921,100 mg/L | Solubility ([1]; 100 °C): 1,800,000 mg/L | Solubility ([2]; 27.6 MPa, 450 °C): 991 mg/L | Solubility ([2]; 27.6 MPa, 475 °C): 630 mg/L | Solubility ([2]; 27.6 MPa, 500 °C): 540 mg/L

Na2 SO4
Solubility ([1]; 100 °C): 283,000 mg/L | Solubility ([2]; 27.4 MPa, 350 °C): 70,000 mg/L | Solubility ([2]; 29.8 MPa, 407 °C): 136 mg/L | Solubility ([2]; 30.0 MPa, 450 °C): 0.02 mg/L

Na3 PO4.12H2 O
Solubility ([1]; 70 °C): 1,570,000 mg/L

Read-outs that look alike come from different tables or passages of the source.
